Laboratory results as given in US4479951A, “1.4;3.6-Dianhydrohexitol nitrates substituted by purine bases, processes for their preparation and pharmaceutical compositions” (Dr. Willmar Schwabe GmbH & Co., priority 1980, dated 1984).

System: mongrel dogs
Assay: circulatory-pharmacological effectiveness on the narcotised dog, intravenous administration
Format: in vivo
Conditions: 1 mg/kg i.v.

Compound: Nc1ncnc2c1ncn2[C@H]1CO[C@H]2[C@@H]1OC[C@@H]2O[N+](=O)[O-] [1c/2c, 5-(9-Adenyl)-5-desoxy-1.4;3.6-dianhydro-L-iditol 2-nitrate]
- effectiveness, especially lowering of the end diastolic pressure in the left ventricle and longterm lowering of the pressure in the A. pulmonalis, comparison: better than that of the comparison compound ISDN
